The assay relates to Ba/F3-KDR-transfected cells. Briefly: Ba/F3-KDR (minus IL3 or plus IL3) cellular proliferation assay. The following applies: plus IL3 (10 ng/ml murine IL3), counterscreen; read-out: BAF3-KDR (PLUS IL3 pIC50) (converted). Type of assay: cell-based. For orientation: A counterscreen serves to expose hits that act by an unwanted route or on another target.

Each structure is given as a SMILES string. A value given as a limit tells only on which side of the number the result lay.

On to `COc1cc(OC)c2c(c1)N(c1ccc3ncc(-c4cnn(C)c4)nc3c1)CCN(C(C)C)C2` [Compound 1], for which the IC50 is above 10 µM.
